Chains of the proteins cited; added tags and fusions are not shown.
Rap guanine nucleotide exchange factor 4 (Homo sapiens), Q8WZA2, UniProt Q8WZA2, whole entry, looked up: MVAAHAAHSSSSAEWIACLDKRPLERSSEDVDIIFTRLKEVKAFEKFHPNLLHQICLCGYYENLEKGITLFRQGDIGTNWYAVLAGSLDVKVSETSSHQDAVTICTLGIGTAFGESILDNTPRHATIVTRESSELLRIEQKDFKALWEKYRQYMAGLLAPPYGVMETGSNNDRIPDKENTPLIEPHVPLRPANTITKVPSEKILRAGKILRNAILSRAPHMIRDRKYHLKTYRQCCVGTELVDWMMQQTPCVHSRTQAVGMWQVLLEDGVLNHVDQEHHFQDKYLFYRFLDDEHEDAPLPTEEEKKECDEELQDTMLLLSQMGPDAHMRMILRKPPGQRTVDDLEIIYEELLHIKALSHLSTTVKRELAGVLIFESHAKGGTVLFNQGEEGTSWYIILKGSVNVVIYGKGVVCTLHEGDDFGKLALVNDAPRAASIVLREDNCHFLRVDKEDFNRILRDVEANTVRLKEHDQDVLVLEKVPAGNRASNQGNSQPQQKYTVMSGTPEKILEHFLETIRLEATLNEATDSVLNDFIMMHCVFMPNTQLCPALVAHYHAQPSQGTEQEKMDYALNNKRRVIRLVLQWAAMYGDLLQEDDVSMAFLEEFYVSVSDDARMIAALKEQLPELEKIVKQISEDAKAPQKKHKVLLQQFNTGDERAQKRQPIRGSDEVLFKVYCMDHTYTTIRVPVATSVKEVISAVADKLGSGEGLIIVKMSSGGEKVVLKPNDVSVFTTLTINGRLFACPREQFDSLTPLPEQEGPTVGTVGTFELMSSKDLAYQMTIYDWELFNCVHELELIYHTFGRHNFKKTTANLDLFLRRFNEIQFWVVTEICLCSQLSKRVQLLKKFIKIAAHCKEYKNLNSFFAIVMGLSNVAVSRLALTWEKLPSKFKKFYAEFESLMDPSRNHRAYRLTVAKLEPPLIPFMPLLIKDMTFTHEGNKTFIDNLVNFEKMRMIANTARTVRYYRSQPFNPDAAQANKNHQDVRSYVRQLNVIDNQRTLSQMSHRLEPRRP
Importin subunit beta-1 (Homo sapiens), Q14974, UniProt Q14974, whole entry, looked up: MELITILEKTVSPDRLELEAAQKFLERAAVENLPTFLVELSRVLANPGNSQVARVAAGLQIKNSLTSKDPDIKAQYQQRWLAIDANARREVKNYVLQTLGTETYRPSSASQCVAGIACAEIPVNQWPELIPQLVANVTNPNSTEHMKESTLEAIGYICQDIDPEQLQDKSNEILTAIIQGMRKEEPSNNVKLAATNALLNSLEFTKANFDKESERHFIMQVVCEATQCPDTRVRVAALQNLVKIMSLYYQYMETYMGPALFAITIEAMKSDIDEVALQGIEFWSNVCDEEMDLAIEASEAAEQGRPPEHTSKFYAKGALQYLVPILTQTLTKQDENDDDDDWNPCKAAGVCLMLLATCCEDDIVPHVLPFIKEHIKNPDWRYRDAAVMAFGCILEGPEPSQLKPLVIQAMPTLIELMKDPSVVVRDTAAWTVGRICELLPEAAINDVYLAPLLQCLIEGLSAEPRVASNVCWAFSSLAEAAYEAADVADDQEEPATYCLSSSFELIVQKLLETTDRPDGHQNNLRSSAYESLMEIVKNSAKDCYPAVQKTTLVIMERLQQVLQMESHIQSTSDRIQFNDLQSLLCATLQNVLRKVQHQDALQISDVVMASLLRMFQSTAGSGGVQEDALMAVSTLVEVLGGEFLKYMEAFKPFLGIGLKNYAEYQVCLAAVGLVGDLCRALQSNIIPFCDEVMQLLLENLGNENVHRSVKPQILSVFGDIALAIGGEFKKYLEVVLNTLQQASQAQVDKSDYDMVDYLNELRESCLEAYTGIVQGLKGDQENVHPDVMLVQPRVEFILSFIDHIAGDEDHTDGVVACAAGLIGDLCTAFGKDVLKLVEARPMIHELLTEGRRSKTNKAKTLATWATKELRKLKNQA

# A selection: hits, their analogues and other compounds. The true share with any hit is near 0.43%.
# EPAC2 antagonist = qHTS for Antagonist of cAMP-regulated guanine nucleotide exchange factor 2 (EPAC2): primary screen; EPAC2 GEF exchange of Rap1B-BODIPY-GDP, fluorescence; AID 720708, 2013; 0.18% of 360,000 active; Potency, µM (series often up to 114 µM), inactives show top-dose activity, negative = inhibition, most hits filed as inhibitors; Rap guanine nucleotide exchange factor 4 (Homo sapiens), Q8WZA2; further: on the % scale 0 is the no-effect control and ±100 the full control effect; nearly all actives have a fitted effect of over 45% in size
# EPAC1 agonist = qHTS for Agonist of cAMP-regulated guanine nucleotide exchange factor 3 (EPAC1): primary screen; Potency, µM (highest dose often 154 µM), inactives show top-dose activation, usual class: activators; 0.073% of 360,000 active; EPAC1 agonist qHTS, biochemical assay; response scale: 100% = response to 6.5 mM cAMP; further: nearly all actives have a fitted effect of over 60% in size
#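 Nucleotide exchange assay: 100 nM EPAC1 with 250 nM Rap1B loaded with BODIPY-GDP and 50 uM GDP, room temperature. Fluorescence (480/540 nm) read every 5 min for 30 min; signal change normalized to 6.5 mM cAMP as full agonist.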
# EPAC1 antagonist = qHTS for Antagonist of cAMP-regulated guanine nucleotide exchange factor 3 (EPAC1): primary screen; Potency, µM (titrated, usually from 115 µM), without a hit: at the highest dose activity change, negative = inhibition, most hits filed as inhibitors; 0.14% of 360,000 active; EPAC1 GEF assay, Rap1b-BODIPY-GDP exchange fluorescence; AID 720709, 2013; Rap guanine nucleotide exchange factor 3 (Homo sapiens), O95398;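 further: plate controls were vehicle for no effect and positive control for full effect; nearly all actives have a fitted effect of over 50% in size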
# Rango complex inh = qHTS Assay for Inhibitors of Rango (Ran-regulated importin-beta cargo) - Importin beta complex formation; Importin subunit beta-1 (Homo sapiens), Q14974; Rango CFP/YFP FRET sensor + importin beta, 45 min; Potency, µM (doses to about 92.2 µM), without a hit: at the top dose inhibition of complex formation; 0.031% of 340,000 active; calls by dose curve;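 further: 0% = DMSO wells and 100% = buffer wells lacking importin beta; nearly all actives have a fitted effect of over 15% in size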
#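 Inhibition scored from the CFP 486 nm/YFP 530 nm FRET ratio 45 min after adding 0.125 microM importin beta to 50 nM Rango biosensor preincubated 5 min with compound (room temperature, PBS with DTT, Tween-20, BSA). No-importin wells as positive control.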
# Rango dissoc inh = qHTS Assay for Inhibitors of RanGTP induced Rango (Ran-regulated importin-beta cargo) - Importin beta complex dissociation. AID 540253, 2011. 0.071% of 340,000 active. Potency, µM (highest dose often 46.1 µM), for inactives: at the top dose activity change, negative = inhibition. Biochemical FRET Rango-importin beta, RanGTP-induced dissociation; calls by dose curve; further: % of control where 0% means no effect; nearly all actives have a fitted effect of over 45% in size
#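 Rango (0.1 uM)–importin beta (0.25 uM) complex; RanGTP-RCC1 trigger; 45 min RT; CFP/YFP FRET read.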
# EPAC2 agonist = qHTS for Agonist of cAMP-regulated guanine nucleotide exchange factor 4 (EPAC2): primary screen; EPAC2 activation, biochemical qHTS; response scale: 100% = 6.5 mM cAMP response; Potency, µM (highest dose often 154 µM), without a hit: at the top dose activation, usual class: activators; 0.079% of 360,000 active; AID 720711, 2013; further: nearly all actives have a fitted effect of over 50% in size
#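 In this primary screen, activation is scored as increased exchange of BODIPY-GDP from Rap1B by 100 nM EPAC2, with 50 uM GDP as competitor. Signal is normalized to the 6.5 mM cAMP agonist control.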
# The depositor's hits bear a star; u = inconclusive; x = not tested or not shown; [ ] = another dose, or the depositor's remark. Unless noted, the call rests on the fitted dose curve; in most records, active means well fitted curve in the direction sought with a large enough effect; inconclusive means small, poorly fitted or top-dose-only effect, or another doubt; inactive means no such curve, though single readings can be large; an effect the other way counts as inactive or inconclusive. Potency means the concentration at half of the fitted maximal effect.
SMILES,EPAC2 antagonist,EPAC1 agonist,EPAC1 antagonist,Rango complex inh,Rango dissoc inh,EPAC2 agonist
COc1ccc2c(c1)O/C(=C\c1sccc1C)C2=O,6%,9%,-7%,u,10µM*,10%
COc1ccc(/C=C2\Oc3ccccc3C2=O)cc1,12%,-6%,-6%,0%,5%,11%
COc1ccc(/C=N/NC(=O)c2cc(O)c(O)c(O)c2)cc1Cn1cc([N+](=O)[O-])cn1,-5%,3%,32µM*,0%,-13%,1%
Oc1ccc(/C=N/Nc2ncnc3nc[nH]c23)cc1,18µM*,0%,-11%,-1%,-10%,0%
COc1cc(/C=N/NC(=O)C(Cc2c[nH]c3ccccc23)NC(=O)OCc2ccccc2)cc([N+](=O)[O-])c1O (stereo not given),-16%,-6%,79µM*,u,-18%,-14%
COc1cc(/C=N/NC(=O)C(Cc2c[nH]c3ccccc23)NC(=O)OCC(C)C)cc([N+](=O)[O-])c1O (stereo not given),1%,-13%,-14%,-5%,-23%,-9%
Cc1ccc(S(=O)(=O)NC(C)(C)CSc2nnc(N)s2)cc1,-7%,11%,-5%,4%,20%,2%
Cn1cc(/C=C2\SC(=S)N(NC(=O)c3ccccc3Cl)C2=O)c2ccccc21,23%,100µM*,68%,u,u,u
Cc1ccc(C(=O)NN2C(=O)/C(=C/c3cccn3C)SC2=S)cc1,-1%,13%,-7%,u,u,22%
Cn1cccc1/C=C1\SC(=S)N(NC(=O)c2ccccc2Cl)C1=O,41%,-166%,-13%,u,u,-147%
Cc1ccc(C(=O)NN2C(=O)/C(=C/c3cn(C)c4ccccc34)SC2=S)cc1,17%,100µM*,-1%,u,u,4%
Cc1nc(C)c(-c2csc(Nc3ccc(C(=O)O)c(O)c3)n2)s1,10µM*,19%,u,3%,28%,-1%
Cc1nc(C)c(-c2csc(Nc3ccc(F)cc3)n2)s1,9%,-5%,-25%,0%,-1%,8%
CCC(CCC(=O)Nc1ccc(S(N)(=O)=O)cc1)C(=O)O (stereo not given),0%,11%,0%,2%,9%,9%
Oc1c(Br)cc(Br)cc1CNc1cccc2cccnc12,11µM*,15%,-26%,u,u,2%
Oc1ccc(Br)cc1CNc1cccc2cccnc12,u,10%,12%,-3%,1%,13%
Oc1ccc(Cl)cc1CNc1cccc2cccnc12,56µM*,-16%,-16%,-4%,1%,10%
CCOC(=O)C1=CCC(c2ccccc2)N(S(=O)(=O)c2ccccc2[N+](=O)[O-])C1 (stereo not given),2%,12%,-9%,x,x,12%
c1ccc(COC2CCCN(Cc3nc(-c4cccs4)no3)C2)nc1 (stereo not given),1%,4%,-2%,1%,0%,4%
Cc1ccc(-n2nc(C)c(Sc3ccccc3[N+](=O)[O-])c2N)cc1,0%,7%,-2%,-2%,1%,16%

# Taken from above.
# In Rango complex inh, Oc1ccc(/C=N/Nc2ncnc3nc[nH]c23)cc1 reads -1%
# In EPAC1 antagonist, COc1cc(/C=N/NC(=O)C(Cc2c[nH]c3ccccc23)NC(=O)OCC(C)C)cc([N+](=O)[O-])c1O (stereo not given) reads -14%
# In EPAC1 antagonist, Cc1ccc(C(=O)NN2C(=O)/C(=C/c3cn(C)c4ccccc34)SC2=S)cc1 reads -1%
# In EPAC2 antagonist, CCOC(=O)C1=CCC(c2ccccc2)N(S(=O)(=O)c2ccccc2[N+](=O)[O-])C1 (stereo not given) reads 2%
# In EPAC2 antagonist, COc1ccc(/C=N/NC(=O)c2cc(O)c(O)c(O)c2)cc1Cn1cc([N+](=O)[O-])cn1 reads -5%
# In Rango dissoc inh, COc1ccc2c(c1)O/C(=C\c1sccc1C)C2=O reads 10µM*

# The listing picks up with the 2 entries that preceded the break.
SMILES,EPAC2 antagonist,EPAC1 agonist,EPAC1 antagonist,Rango complex inh,Rango dissoc inh,EPAC2 agonist
c1ccc(COC2CCCN(Cc3nc(-c4cccs4)no3)C2)nc1 (stereo not given),1%,4%,-2%,1%,0%,4%
Cc1ccc(-n2nc(C)c(Sc3ccccc3[N+](=O)[O-])c2N)cc1,0%,7%,-2%,-2%,1%,16%
CC(=O)Oc1c(Sc2ccccc2[N+](=O)[O-])c(C)nn1C(C)(C)C,50µM*,10%,u,-1%,2%,8%
O=c1c2ccccc2[nH]c(=S)n1CCCN1CCOCC1,-4%,6%,-8%,0%,0%,-1%
N=C1c2c(cc(=O)n3c2[nH]c2ccccc23)CN1CCN1CCOCC1,1%,0%,1%,u,21µM*[inhibitor],0%
COc1cc(/C=C/C(=O)OCC(=O)N2CCCc3ccccc32)ccc1O,-26%,1%,-2%,u,15µM*,5%
COc1cc(/C=C/C(=O)OCC(=O)N2CCCc3ccccc32)ccc1OCC#N,0%,6%,-19%,7%,-18%,2%
CC1CN(C(=O)CCC(=O)NCc2ccc(Cl)cc2)c2ccccc2O1 (stereo not given),-15%,-1%,-12%,1%,-15%,17%
CC1CN(C(=O)CCC(=O)NCc2ccccc2)c2ccccc2S1 (stereo not given),50µM*,0%,10%,-1%,9%,14%
Oc1ccc2ccccc2c1C=Nc1ccc(N2CCOCC2)cc1,-3%,u,-28%,37µM*,u,21%
C=Cc1ccc(N=Cc2c(O)ccc3ccccc23)cc1,3%,23%,-3%,u,-2%,23%
Oc1ccc2ccccc2c1C=NC12CN3CCN(CN(C3)C1)C2,u,16%,79µM*,u,-24%,19%
O=C(NCc1nc2ccccc2[nH]1)C1=C[C@H](c2csc3ccccc23)C[C@H](OCc2ccc(CO)cc2)O1,4%,12%,-3%,-3%,1%,4%
C/C(=N\NC(=O)c1cc2ccccc2cc1O)c1cc2ccccc2o1,6%,5%,50µM*,u,-4%,-7%
C/C(=N\NC(=O)c1cc2ccccc2cc1O)c1ccccn1,14%,-22%,u,u,-26%,10%
N#C/C(=C/c1ccc(C(=O)O)cc1)C(=O)NCc1ccccc1,-2%,4%,9%,0%,u,5%
CCN(CC)c1ccc(/C=C(\C#N)C(=O)NCc2ccccc2)cc1,28%,100µM*,-2%,u,u,8%
Cc1cc(/C=C(\C#N)C(=O)NCc2ccccc2)cc(C)c1O,0%,-1%,-14%,u,6.5µM*,6%
COc1cc(/C=C(/C#N)C(=O)NCc2ccccc2)cc(OC)c1OC,7%,2%,-14%,0%,6%,5%
CCOCCCNC(=O)/C(C#N)=C/c1cc(C)c(O)c(C)c1,24%,-9%,22%,u,26µM*,0%
CCOCCCNC(=O)/C(C#N)=C/c1cc(OC)c(O)c([N+](=O)[O-])c1,-22%,-6%,u,-2%,12%,12%

# High-throughput results: PubChem BioAssay, National Center for Advancing Translational Sciences (NCATS)
